Source: PMC6982817, “Substituted N-(Pyrazin-2-yl)benzenesulfonamides; Synthesis, Anti-Infective Evaluation, Cytotoxicity, and In Silico Studies” (Molecules, 2019)

Key:
Type in all cases: cell-based
[1] = test system: M. avium ssp. avium CNCTC My 80/72 (ATCC 15769); assay: Antimycobacterial microplate alamar blue assay, M. avium; conditions: Mycobacterium avium, ATCC15769, pH 6.6, read-out: Antimycobacterial Activity MIC M. avium
[2] = test system: Mycobacterium smegmatis DSM 43465 (ATCC 607); assay: Antimycobacterial microdilution assay, M. smegmatis; conditions: Mycolicibacterium smegmatis
[3] = test system: Mycobacterium aurum DSM 43999 (ATCC 23366); assay: Antimycobacterial microdilution assay, M. aurum; conditions: Mycolicibacterium aurum, 72 h, read-out: Antimycobacterial Activity MIC M. aurum
[4] = test system: M. kansasii CNCTC My 235/80 (ATCC 12478); assay: Antimycobacterial microplate alamar blue assay, M. kansasii; conditions: Mycobacterium kansasii, ATCC12478, pH 6.6, read-out: Antimycobacterial Activity MIC M. kansasii

Compound `NS(=O)(=O)c1ccccc1` [Benzenesulfonamide, benzenesulfonamide] has an MIC [1] greater than 100 µg/mL, an MIC ([2]; 48 h, read-out: Antimycobacterial Activity MIC M. smeg) of 31.2 µg/mL and an MIC ([2]; read-out: MIC M. smegmatis in μM) of 199 µM. It also gave an MIC [3] of 125 µg/mL (≈ 795 µM) and an MIC [4] greater than 100 µg/mL.

≈ marks a conversion by molar mass, not a printed value. Where two headings read alike, the source gives them in different places.
